# Reference: patent US10793547B2, “Modulator of the cystic fibrosis transmembrane conductance regulator, pharmaceutical compositions, methods of treatment, and process for making the modulator” (Vertex Pharmaceuticals Incorporated, priority 2016, dated 2020)
# Amino acid sequences for entries named in this document (tags omitted). Chains listed by the source or under a name are the forms on record and can include a tag or linker.
# UniProt P13569, with tags, fused parts or gaps DEL508-508: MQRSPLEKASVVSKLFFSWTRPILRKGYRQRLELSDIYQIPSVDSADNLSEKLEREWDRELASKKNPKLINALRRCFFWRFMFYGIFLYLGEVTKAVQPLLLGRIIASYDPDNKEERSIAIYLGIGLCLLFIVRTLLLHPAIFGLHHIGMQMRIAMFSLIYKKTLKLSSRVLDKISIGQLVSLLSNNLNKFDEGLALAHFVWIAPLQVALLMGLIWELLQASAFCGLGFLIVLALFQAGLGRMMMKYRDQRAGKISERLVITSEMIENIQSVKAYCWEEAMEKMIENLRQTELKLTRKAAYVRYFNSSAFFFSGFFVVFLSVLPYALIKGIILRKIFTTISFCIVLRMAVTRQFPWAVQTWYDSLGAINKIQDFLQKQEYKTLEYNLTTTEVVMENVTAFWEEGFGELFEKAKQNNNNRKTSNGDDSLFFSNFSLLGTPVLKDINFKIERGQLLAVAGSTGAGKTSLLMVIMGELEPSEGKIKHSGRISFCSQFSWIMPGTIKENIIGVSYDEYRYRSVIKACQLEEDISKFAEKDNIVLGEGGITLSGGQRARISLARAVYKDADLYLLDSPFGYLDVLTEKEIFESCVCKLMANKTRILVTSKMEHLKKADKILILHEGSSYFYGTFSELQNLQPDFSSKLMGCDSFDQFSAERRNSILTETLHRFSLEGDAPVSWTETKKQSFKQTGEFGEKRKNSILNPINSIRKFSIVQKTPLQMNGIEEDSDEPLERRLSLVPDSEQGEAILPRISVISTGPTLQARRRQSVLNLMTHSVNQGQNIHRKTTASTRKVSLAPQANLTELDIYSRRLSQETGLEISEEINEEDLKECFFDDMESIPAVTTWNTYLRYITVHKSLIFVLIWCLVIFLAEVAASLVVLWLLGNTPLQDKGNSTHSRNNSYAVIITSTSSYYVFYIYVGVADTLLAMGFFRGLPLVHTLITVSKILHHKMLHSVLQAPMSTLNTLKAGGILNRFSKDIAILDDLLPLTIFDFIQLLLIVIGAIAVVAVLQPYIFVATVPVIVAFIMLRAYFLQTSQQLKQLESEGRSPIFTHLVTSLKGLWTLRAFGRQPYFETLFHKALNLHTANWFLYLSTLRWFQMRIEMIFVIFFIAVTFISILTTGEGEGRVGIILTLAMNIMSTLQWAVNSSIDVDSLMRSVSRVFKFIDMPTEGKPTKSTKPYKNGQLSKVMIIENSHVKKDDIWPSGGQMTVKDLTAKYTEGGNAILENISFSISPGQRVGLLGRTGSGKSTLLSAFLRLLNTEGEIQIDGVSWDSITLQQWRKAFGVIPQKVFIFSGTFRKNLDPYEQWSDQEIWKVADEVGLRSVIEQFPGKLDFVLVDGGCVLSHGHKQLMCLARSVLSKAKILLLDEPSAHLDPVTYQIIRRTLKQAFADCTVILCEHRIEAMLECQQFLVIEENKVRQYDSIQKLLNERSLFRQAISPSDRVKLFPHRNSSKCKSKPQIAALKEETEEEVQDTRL
# UniProt O75469, whole entry: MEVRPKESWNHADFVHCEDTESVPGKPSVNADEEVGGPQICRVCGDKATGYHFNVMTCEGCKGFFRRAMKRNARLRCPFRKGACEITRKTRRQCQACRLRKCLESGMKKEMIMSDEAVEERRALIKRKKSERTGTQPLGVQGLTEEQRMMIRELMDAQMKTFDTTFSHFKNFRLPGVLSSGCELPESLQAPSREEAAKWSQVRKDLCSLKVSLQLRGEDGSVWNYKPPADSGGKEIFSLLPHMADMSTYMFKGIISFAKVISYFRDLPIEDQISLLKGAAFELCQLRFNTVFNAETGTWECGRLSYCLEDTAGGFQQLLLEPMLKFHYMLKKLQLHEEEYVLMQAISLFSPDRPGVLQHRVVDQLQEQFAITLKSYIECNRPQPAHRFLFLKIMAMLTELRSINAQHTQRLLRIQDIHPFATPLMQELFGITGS
# Experiments:
# F508del-CFTR = F508del-CFTR (Homo sapiens, UniProt P13569, DEL508-508); experiment: Membrane potential optical (FLIPR) assay for F508del-CFTR modulators in NIH 3T3 cells; conditions: read-out: CFTRdF508 Cor 3T3 FLIPR 384 CFTRdF508 MP 3T3 770 EC50; NIH 3T3 cells expressing F508del; assay A1
# From the text: Membrane Potential Optical Methods for Assaying Properties of F508del-CFTR Modulators
# The assay utilizes fluorescent voltage sensing dyes to measure changes in membrane potential using a fluorescent plate reader (e.g., FLIPR III, Molecular Devices, Inc.) as a readout for increase in functional F508del in NIH 3T3 cells. The driving force for the response is the creation of a chloride ion gradient in conjunction with channel activation and concurrent with compound treatment by a single liquid addition step after the cells have previously been loaded with a voltage sensing dye.
# A1. Identification of F508del-CFTR Modulators
# To identify modulators of F508del, a fluorescence based HTS assay format was developed. This HTS assay utilizes fluorescent voltage sensing dyes to measure changes in membrane potential on the FLIPR III as a measurement for increase in gating (conductance) of F508del NIH 3T3 cells. The driving force for the response is the creation of a chloride ion gradient in conjunction with channel activation and concurrent with compound treatment by a single liquid addition step after the cells have previously been loaded with a voltage sensing dye.
# Bath Solution #1: (in mM) NaCl 160, KCl 4.5, CaCl2 2, MgCl2 1, HEPES 10, pH 7.4 with NaOH, Glucose 10.
# Chloride-free bath solution: Chloride salts in Bath Solution #1 (above) are substituted with gluconate salts. […]
# human PXR = human PXR (Homo sapiens, UniProt O75469); experiment: PXR assay: PXR mediated CYP3A4 induction in DPX-2 cell line; conditions: DPX-2 cells
# MDCK-Wild Type = MDCK-Wild Type permeability, 96 well + 0.1% BSA; format: in vitro ADME; conditions: A-B direction
SMILES,EC50 (F508del-CFTR) [nM],CYP3A4 Induction-PXR human PXR internal Max % Activity (human PXR) [%],MDCK-Wild Type-Permeability 96 well + 0.1% BSA Papp compound (A-B) (MDCK-Wild Type)
Cc1c(S(=O)(=O)NC(=O)c2ccc(-n3ccc(COCC4(C(F)(F)F)CC4)n3)nc2N2C[C@@H](C)CC2(C)C)cnn1C,440,6,1.3 10E-6 cm/s
Cc1c(S(=O)(=O)NC(=O)c2ccc(-n3ccc(OCCC(F)(F)F)n3)nc2N2C[C@@H](C)CC2(C)C)cnn1C,860,33.5,–
